The substances below were run against prostate-specific membrane antigen (PSMA), coated on M-270-carboxy Dynabeads (human) (UniProt Q04609) (assay: radioligand binding to PSMA-coated M-270-carboxy Dynabeads, unspecific binding from samples blocked with excess naked PSMA mAb subtracted).

Row | IRF (immunoreactive fraction) [%] | Substance
1 | 92 | Ac-225-DOTA-Pelgifatamab CAR 5.7 (antibody)
2 | 74 | Ac-225-DOTA-Pelgifatamab CAR 12.7 (antibody)
3 | 95 | Ac-225-macropa-Pelgifatamab (CAR 0.8) (antibody)

Source: patent publication EP4279092A1
